Assay: Iron dialysability assay (in vitro dialysable iron from fortified dough)
Settings: dough from whole-grain wheat flour fortified with 50 mg/kg iron; normalized to dough fortified with ferrous sulfate; means of 4-5 experiments; ** = significantly different from ferrous sulfate (p < 0.05)

Iron 2-hydroxy-3-methoxy benzaldehyde (o-vanillin)
Relative availability: 2.4**

— patent US20060078594A1, “Iron complex” (Conopco, Inc., d/b/a UNILEVER, priority 2004, published 2006)
